Source: patent EP1200059B1, “SKIN CARE COMPOSITION” (UNILEVER PLC, priority 1999, dated 2001)

What was measured:
[1] = system: acyl CoA retinol transferase (ARAT); experiment: in vitro Microsomal Assay of retinol esterification, ARAT catalysed (retinyl palmitate formation); conditions: Table 5; 10 μM
[2] = target: T1, lecithin retinol acyl transferase (LRAT) (Bos taurus, UniProt Q9BGL2); experiment: in vitro Microsomal Assay of retinol esterification, LRAT catalysed (retinyl laurate formation); conditions: for % INHIBITION, LRAT: Table 7, 100 µM; for % INHIB. LRAT: Table 5, 100 μM
T1 sequence (Q9BGL2 1-230): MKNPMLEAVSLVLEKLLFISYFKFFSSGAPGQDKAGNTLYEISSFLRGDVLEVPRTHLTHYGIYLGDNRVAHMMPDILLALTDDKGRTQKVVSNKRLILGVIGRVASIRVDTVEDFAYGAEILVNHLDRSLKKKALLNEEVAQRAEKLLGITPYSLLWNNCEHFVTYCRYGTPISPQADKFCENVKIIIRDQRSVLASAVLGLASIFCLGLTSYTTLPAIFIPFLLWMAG

| Compound | % INHIBITION, LRAT [2] | % INHIB. LRAT [2] | further results |
| --- | --- | --- | --- |
| CCCCCCCC/C=C\CCCCCCCC1=NCCN1CCO [oleyl hydroxyethyl imidazoline] |  |  | % INHIB. ARAT [1]: 14% |
| Delta methyl ionone | 10% |  |  |
| Dimethyl ionone | 9% |  |  |
| cocoglutamate |  | 0% |  |
| dimethyl cocamine oxide |  | 0% |  |
